Data as given in PMC5845983.

Sequences of proteins named here, by UniProt entry; tags and fusion partners are left off. Residues count along the entry.
UniProt P17927, 42-2039: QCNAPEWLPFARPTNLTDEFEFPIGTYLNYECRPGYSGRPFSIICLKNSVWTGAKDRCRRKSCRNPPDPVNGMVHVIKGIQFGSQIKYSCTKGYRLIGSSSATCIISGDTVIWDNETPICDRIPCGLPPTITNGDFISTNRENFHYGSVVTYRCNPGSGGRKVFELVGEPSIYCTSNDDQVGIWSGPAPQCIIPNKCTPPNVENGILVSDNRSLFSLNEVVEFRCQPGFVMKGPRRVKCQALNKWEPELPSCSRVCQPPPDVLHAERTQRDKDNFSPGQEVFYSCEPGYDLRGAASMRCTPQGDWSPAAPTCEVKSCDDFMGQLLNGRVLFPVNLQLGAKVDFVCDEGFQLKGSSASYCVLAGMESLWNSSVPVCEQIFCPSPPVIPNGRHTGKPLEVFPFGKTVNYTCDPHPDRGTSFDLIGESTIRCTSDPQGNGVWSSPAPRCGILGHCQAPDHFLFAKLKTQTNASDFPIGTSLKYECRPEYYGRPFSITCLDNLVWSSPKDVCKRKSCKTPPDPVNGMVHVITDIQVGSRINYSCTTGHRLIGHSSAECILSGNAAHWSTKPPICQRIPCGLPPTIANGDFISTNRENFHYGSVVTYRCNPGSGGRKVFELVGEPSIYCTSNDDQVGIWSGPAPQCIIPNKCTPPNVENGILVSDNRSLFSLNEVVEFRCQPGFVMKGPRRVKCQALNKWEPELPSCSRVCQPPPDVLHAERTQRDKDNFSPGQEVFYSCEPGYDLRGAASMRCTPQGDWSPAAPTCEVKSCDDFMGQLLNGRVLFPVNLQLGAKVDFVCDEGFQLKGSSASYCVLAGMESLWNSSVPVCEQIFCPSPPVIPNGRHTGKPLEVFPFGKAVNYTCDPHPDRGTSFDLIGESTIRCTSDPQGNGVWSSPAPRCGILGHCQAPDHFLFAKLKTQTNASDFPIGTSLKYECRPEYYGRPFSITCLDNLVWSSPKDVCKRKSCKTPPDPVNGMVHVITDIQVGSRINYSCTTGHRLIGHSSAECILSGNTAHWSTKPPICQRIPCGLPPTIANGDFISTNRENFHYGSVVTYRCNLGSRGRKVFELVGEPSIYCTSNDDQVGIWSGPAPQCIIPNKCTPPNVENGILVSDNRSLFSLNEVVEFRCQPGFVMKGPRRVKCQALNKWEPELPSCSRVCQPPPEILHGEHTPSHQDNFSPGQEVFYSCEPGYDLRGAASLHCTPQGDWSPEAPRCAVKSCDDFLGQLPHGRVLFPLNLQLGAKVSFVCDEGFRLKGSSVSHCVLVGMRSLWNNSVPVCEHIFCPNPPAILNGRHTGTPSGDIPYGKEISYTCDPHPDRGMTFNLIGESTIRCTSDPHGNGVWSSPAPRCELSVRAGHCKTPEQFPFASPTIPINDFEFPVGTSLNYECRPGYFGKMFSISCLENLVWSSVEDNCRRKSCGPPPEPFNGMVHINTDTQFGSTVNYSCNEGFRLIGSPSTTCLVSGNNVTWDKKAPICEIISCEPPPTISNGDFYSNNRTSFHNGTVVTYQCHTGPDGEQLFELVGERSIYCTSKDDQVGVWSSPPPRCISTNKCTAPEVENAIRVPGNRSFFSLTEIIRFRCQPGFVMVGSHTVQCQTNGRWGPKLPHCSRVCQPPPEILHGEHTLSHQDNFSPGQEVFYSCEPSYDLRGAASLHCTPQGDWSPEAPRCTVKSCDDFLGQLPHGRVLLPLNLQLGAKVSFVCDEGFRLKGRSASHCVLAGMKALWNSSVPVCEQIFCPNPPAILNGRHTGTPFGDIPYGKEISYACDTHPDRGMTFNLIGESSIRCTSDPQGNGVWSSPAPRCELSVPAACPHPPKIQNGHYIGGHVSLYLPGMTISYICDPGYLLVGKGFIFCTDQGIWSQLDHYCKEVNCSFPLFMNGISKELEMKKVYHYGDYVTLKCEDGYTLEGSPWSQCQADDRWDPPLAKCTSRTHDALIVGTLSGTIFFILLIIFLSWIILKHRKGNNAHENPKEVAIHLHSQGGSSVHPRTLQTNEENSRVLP
UniProt P02745, 23-245: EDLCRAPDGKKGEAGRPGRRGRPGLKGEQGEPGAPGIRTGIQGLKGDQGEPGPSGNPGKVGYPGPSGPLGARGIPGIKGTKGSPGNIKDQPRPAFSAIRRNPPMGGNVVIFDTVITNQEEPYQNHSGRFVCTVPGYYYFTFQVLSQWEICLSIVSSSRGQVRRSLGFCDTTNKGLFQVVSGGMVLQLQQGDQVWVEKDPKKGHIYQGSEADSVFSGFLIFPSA
C1q, UniProt P02746, 28-253: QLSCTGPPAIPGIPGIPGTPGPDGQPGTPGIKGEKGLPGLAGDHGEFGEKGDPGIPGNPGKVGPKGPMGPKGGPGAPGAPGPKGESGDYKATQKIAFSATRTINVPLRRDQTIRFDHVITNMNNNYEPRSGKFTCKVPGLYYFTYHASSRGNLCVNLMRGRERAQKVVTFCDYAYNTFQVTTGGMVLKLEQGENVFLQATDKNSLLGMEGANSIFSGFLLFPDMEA
C1q, UniProt P02747, 29-245: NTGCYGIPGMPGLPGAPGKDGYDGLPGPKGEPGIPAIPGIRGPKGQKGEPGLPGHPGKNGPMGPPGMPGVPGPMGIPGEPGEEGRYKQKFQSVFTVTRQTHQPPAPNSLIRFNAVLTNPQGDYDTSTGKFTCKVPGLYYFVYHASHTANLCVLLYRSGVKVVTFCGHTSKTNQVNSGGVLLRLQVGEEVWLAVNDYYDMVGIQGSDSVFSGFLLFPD

Assays:
[1] = target: CR1 CCP22-30 His6 fragment (insect cells) (human); assay: SPR; BIAcore 3000, multiple cycle; CR1 protein amine-coupled on CM5 (sCR1 9,500 RU, CCP22-30 1,500 RU, CCP24-25 1,000 RU); C1q injected at 20 µl/min in 50 mM TEA, 150 mM NaCl, 1 mM CaCl2, 0.005% surfactant P20, pH 7.4; global 1:1 Langmuir fit; apparent KD = kd/ka
[2] = target: Recombinant soluble human CR1 (sCR1) (human) (UniProt P17927); assay: as above
[3] = target: CR1 bimodular fragment CCP25-26 (human); assay: ELISA; solid-phase binding assay; plates coated with 3.4 pmol of each CR1 variant; C1q 10 µg/ml in PBS-T, 90 min, room temperature; detected with anti-C1q rabbit polyclonal and HRP anti-rabbit antibody

In the case of “C1q (from UniProt P02745 23-245; P02746 28-253; P02747 29-245) (complex)”, the Kd [1] is reported as 0.26 nM, the Kd [2] is reported as 0.49 nM and the C1q binding (%) [3] is reported as 24%.
